The values below come from patent US6496728B2, “Methods for extracting substances using alternating current” (University of Utah Research Foundation, priority 2000, dated 2002).

SMILES strings stand for the structures.

Series [1] can be described thus: Constant current DC iontophoretic transport across human epidermal membrane in side-by-side diffusion cell. The protocol:
Iontophoretic transport studies were carried out in a side-by-side two-chamber diffusion cell (diffusional surface area of around 0.8 cm^2 and chamber volume of 2 mL) with HEM at 37° C. The apparent permeability coefficients (P) in each experiment were calculated by: [formula]
where A is the membrane surface area, t is time, Q is the amount of permeant transported into the receiver chamber, and CD is the concentration of permeant in the donor chamber. The pH of the solutions in the donor and receiver chambers was checked after each iontophoresis run to detect possible water hydrolysis.
Constant current DC transport experiments were carried out at the current level of 0.13 mA/cm^2 using a constant current iontophoretic device (phoresor II Auto, Model No. PM 850, Iomed, Inc., Salt Lake City, Utah) with Ag—AgCl electrodes. […] HEM resistance during iontophoresis was measured by monitoring the electrical potential drop across the membrane using two flexible Luggin capillaries which were inserted into the donor and receiver compartments of the diffusion cells. Each of the Luggin capillaries contained a calomel electrode connected to a voltmeter. The HEM resistance could be determined during iontophoresis according the output current level and the voltmeter readings.
A trace amount of [^14C] […] One ml of sample was taken from the receiver chamber approximately every 30 minutes and replaced with the fresh PBS. A 10 μl sample was taken from the donor chamber every hour. Samples were mixed with 10 ml scintillation cocktail (Ultima Gold™, Packard Instrument Co., Meriden, Conn.) and assayed by a dual-labeled liquid scintillation counter (Parkard TriCarb™ Model 1900 TR Liquid Scintillation Analyzer).

A short description of series [2]: AC without DC offset (AC + passive) transport across human epidermal membrane in side-by-side diffusion cell. It counts as in vitro ADME. Particulars: for Slope of normalized TEA^+ flux versus time (linear regression): AC 50 Hz, no DC offset, data points between 100 and 330 minutes. An excerpt: The same protocol was used to reduce the skin electrical resistance to 2 kΩ as described in the AC+DC Offset method. […] Permeants and sampling protocol were the same as in the Constant Current and AC+DC Offset sessions as described above.

Series [3] can be described thus: AC + DC offset iontophoretic transport across human epidermal membrane in side-by-side diffusion cell. The class given is in vitro ADME. The source says: The output AC voltage was manually adjusted between 3 to 8 volts to keep the skin resistance at 2 kΩ (±10%) and the DC offset value was kept constant at 0.25 V during the entire period of the experiment. The same permeants and sampling protocol were used as described in the Constant Current Session.

`CC[N+](CC)(CC)CC.[Br-]` [TEA^+, tetraethylammonium bromide]: the “Rate of change of normalized TEA^+ flux, fold higher with constant current DC than with AC without DC Offset” value in series [1] (constant current DC versus AC without DC Offset) is 20 fold. The “Rate of change of normalized TEA^+ flux, fold higher with constant current DC than with AC+DC Offset” value in series [1] (constant current DC versus AC+DC Offset) was 3 fold. Also, the Papp in series [1] (human) is 4.7 ×10⁻⁶ cm/s; in series [3] (human, AC (50 Hz) with 0.25 V DC offset, target skin resistance 2 kΩ, all data points from 100 to 330 min, 42 points (7 samples), read-out: TEA^+ permeability coefficient, mean) it was 6 ×10⁻⁶ cm/s. The Papp at 180 min in series [1] (human) was 4.7 ×10⁻⁶ cm/s; in series [2] (human, AC (50 Hz) w/o DC offset, target skin resistance 2 kΩ, one time point (180 min), 4 samples, read-out: TEA^+ permeability coefficient, mean), 0.99 ×10⁻⁶ cm/s; in series [3] (human, AC (50 Hz) with 0.25 V DC offset, target skin resistance 2 kΩ, one time point (180 min), 7 samples, read-out: TEA^+ permeability coefficient, mean) it was 6.2 ×10⁻⁶ cm/s. In addition, the figures for the “Slope of normalized TEA^+ flux versus time (linear regression)” value in series [2] (target skin resistance 2 kΩ) and in series [2] (target skin resistance 4 kΩ) were 3 × 10^−10 cm sec^−1 min^−1 and −3 × 10^−10 cm sec^−1 min^−1, respectively. Moreover, the “Rate of change of normalized TEA^+ flux, fold higher with AC+DC Offset than with AC without DC Offset” value in series [3] (AC+DC Offset versus AC without DC Offset) stood at 7 fold.
